From ChEMBL document CHEMBL1154346 (Bioorg Med Chem Lett, 2009) come the findings set out here.

Protein sequences, listed by entry. Tags and fused reporters are not part of them.
UniProt P41146, whole entry: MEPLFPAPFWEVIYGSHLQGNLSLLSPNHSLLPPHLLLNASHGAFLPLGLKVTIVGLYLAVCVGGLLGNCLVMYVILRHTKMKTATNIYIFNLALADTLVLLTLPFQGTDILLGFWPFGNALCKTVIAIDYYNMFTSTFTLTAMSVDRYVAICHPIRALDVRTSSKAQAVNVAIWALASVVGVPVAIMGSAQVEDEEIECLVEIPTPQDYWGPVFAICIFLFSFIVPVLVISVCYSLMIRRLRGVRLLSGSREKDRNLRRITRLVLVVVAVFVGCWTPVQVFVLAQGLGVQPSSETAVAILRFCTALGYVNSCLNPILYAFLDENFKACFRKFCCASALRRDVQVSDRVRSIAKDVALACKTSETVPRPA

The assay addresses Nociceptin receptor (Homo sapiens) (UniProt P41146). The assay can be described thus: Agonist activity at human NOP receptor expressed in CHO cells assessed as inhibition of forskolin-stimulated cAMP production after 2 hrs relative to nociceptin. Details: scale not given: the % may be the effect or the level left.
On to `CNC(=O)Cn1c(=O)n(C2CCN([C@H]3CC[C@@H](C(C)C)CC3)CC2)c2ccccc21`, for which the Activity was 101%. In the case of `CNC(=O)Cn1c(=O)n(C2CCN([C@H]3CC[C@H](C(C)C)CC3)CC2)c2ccccc21`, the Activity is 92%.

With `CNC(=O)CN1Cc2ccccc2N(C2CCN(C3CCCCCCCCC3)CC2)S1(=O)=O`, the Activity was found to be 93%.
